Measurements from patent US7786328B2, “Cyclohexyl-1,4-diamine compounds” (dated 2010).

Sequences of proteins named here, by UniProt entry; tags and fusion partners are left off.
UniProt P35372, whole entry, looked up: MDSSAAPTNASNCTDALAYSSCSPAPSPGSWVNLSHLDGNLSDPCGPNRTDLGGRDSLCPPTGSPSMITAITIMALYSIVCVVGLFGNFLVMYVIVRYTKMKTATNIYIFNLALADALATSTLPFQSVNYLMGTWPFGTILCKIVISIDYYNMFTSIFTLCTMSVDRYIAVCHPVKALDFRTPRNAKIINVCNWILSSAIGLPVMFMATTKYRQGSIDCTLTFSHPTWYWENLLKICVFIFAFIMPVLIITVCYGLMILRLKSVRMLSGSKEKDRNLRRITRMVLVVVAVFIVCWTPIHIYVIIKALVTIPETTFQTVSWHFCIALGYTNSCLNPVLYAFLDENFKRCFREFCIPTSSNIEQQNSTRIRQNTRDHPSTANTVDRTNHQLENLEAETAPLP

Target: human μ-opiate receptor (Homo sapiens, UniProt P35372)
Experiment: Measurement of the μ binding ([3H]-naloxone displacement, CHO-K1 membrane preparation)
Conditions: test substance 1 μM; inhibition of specific binding of 1 nmol/l [3H]-naloxone

CN(C)C1(Cc2ccc(Cl)cc2)CCC(NC(=O)c2ccccc2COC(=O)c2ccccc2)CC1 (stereo not drawn)
μ-Opiate receptor [1 μM], % inhibition: 92%

CC(=O)OC(C(=O)NC1CCC(Cc2ccccc2)(N(C)C)CC1)c1ccccc1 (stereo not drawn)
μ-Opiate receptor [1 μM], % inhibition: 66%

O=C(OCc1ccccc1C(=O)NC1CCC(Cc2ccccc2)(N2CCCCCC2)CC1)c1ccccc1 (stereo not drawn)
μ-Opiate receptor [1 μM], % inhibition: 51%

CSCC(=O)NC1CCC(Cc2cccc(F)c2)(N(C)C)CC1 (stereo not drawn)
μ-Opiate receptor [1 μM], % inhibition: 55%

Cc1ccc(CC2(N(C)C)CCC(NC(=O)C(C)Oc3ccccc3)CC2)cc1 (stereo not drawn)
μ-Opiate receptor [1 μM], % inhibition: 49%

CCC(Oc1ccccc1)C(=O)NC1CCC(Cc2ccc(F)cc2)(N(C)C)CC1 (stereo not drawn)
μ-Opiate receptor [1 μM], % inhibition: 55%

CN(C)C1(Cc2cccc(Cl)c2)CCC(NC(=O)CSCc2ccccc2)CC1 (stereo not drawn)
μ-Opiate receptor [1 μM], % inhibition: 73%

CN(C)C1(Cc2ccccc2)CCC(NC(=O)CSc2ccc(C(F)(F)F)cn2)CC1 (stereo not drawn)
μ-Opiate receptor [1 μM], % inhibition: 52%

CN(C)C1(Cc2ccccc2Cl)CCC(NC(=O)c2ccccc2Oc2ccccc2)CC1 (stereo not drawn)
μ-Opiate receptor [1 μM], % inhibition: 82%

Cc1ccccc1CC1(N(C)C)CCC(NC(=O)COc2ccc(Cl)cc2)CC1 (stereo not drawn)
μ-Opiate receptor [1 μM], % inhibition: 80%

COc1ccc(Oc2ccc([N+](=O)[O-])cc2C(=O)NC2CCC(Cc3cccc(Cl)c3)(N(C)C)CC2)cc1 (stereo not drawn)
μ-Opiate receptor [1 μM], % inhibition: 77%

Cc1cccc(CC2(N(C)C)CCC(NC(=O)CCCOc3ccc(Cl)cc3C)CC2)c1 (stereo not drawn)
μ-Opiate receptor [1 μM], % inhibition: 57%

CCC(Oc1ccccc1)C(=O)NC1CCC(Cc2cccc(F)c2)(N(C)C)CC1 (stereo not drawn)
μ-Opiate receptor [1 μM], % inhibition: 57%

CN(C)C1(Cc2cccc(F)c2)CCC(NC(=O)COc2ccc(Cl)cc2)CC1 (stereo not drawn)
μ-Opiate receptor [1 μM], % inhibition: 69%

CN(C)C1(Cc2ccccc2Cl)CCC(NC(=O)COc2ccccc2)CC1 (stereo not drawn)
μ-Opiate receptor [1 μM], % inhibition: 86%

CN(C)C1(Cc2ccccc2F)CCC(NC(=O)COc2ccc(Cl)cc2)CC1 (stereo not drawn)
μ-Opiate receptor [1 μM], % inhibition: 85%

Cc1cc(Cl)ccc1OCCCC(=O)NC1CCC(Cc2ccccc2)(N2CCCCC2)CC1 (stereo not drawn)
μ-Opiate receptor [1 μM], % inhibition: 45%

CN(C)C1(Cc2ccc(Cl)cc2)CCC(NC(=O)CSCc2ccccc2)CC1 (stereo not drawn)
μ-Opiate receptor [1 μM], % inhibition: 69%

CN(C)C1(Cc2cccc(Cl)c2)CCC(NC(=O)COCc2ccccc2)CC1 (stereo not drawn)
μ-Opiate receptor [1 μM], % inhibition: 71%

CN(C)C1(Cc2ccccc2F)CCC(NC(=O)c2ccccc2COC(=O)c2ccccc2)CC1 (stereo not drawn)
μ-Opiate receptor [1 μM], % inhibition: 96%

Cc1cc(Cl)ccc1OCCCC(=O)NC1CCC(CCc2ccccc2)(N(C)C)CC1 (stereo not drawn)
μ-Opiate receptor [1 μM], % inhibition: 61%

CN(C)C1(CCc2ccccc2)CCC(NC(=O)c2ccccc2COC(=O)c2ccccc2)CC1 (stereo not drawn)
μ-Opiate receptor [1 μM], % inhibition: 96%

CN(C)C1(Cc2ccc(F)cc2)CCC(NC(=O)C(C)(C)Oc2ccccc2Cl)CC1 (stereo not drawn)
μ-Opiate receptor [1 μM], % inhibition: 89%

O=C(CSc1ccc(C(F)(F)F)cn1)NC1CCC(c2ccccc2)(N2CCCCC2)CC1 (stereo not drawn)
μ-Opiate receptor [1 μM], % inhibition: 63%

COC(=O)CCCC(=O)NC1CCC(Cc2ccc(F)cc2)(N(C)C)CC1 (stereo not drawn)
μ-Opiate receptor [1 μM], % inhibition: 43%

CN(C)C1(Cc2ccccc2Cl)CCC(NC(=O)COc2ccc(Cl)cc2)CC1 (stereo not drawn)
μ-Opiate receptor [1 μM], % inhibition: 66%

CC(=O)OC(C)(C)C(=O)NC1CCC(Cc2ccccc2)(N(C)C)CC1 (stereo not drawn)
μ-Opiate receptor [1 μM], % inhibition: 43%

Cc1ccc(CC2(N(C)C)CCC(NC(=O)COc3ccc(Cl)cc3)CC2)cc1 (stereo not drawn)
μ-Opiate receptor [1 μM], % inhibition: 56%

COc1ccc(Oc2ccc([N+](=O)[O-])cc2C(=O)NC2CCC(Cc3cccc(F)c3)(N(C)C)CC2)cc1 (stereo not drawn)
μ-Opiate receptor [1 μM], % inhibition: 89%

Cc1ccccc1CC1(N(C)C)CCC(NC(=O)c2ccccc2Oc2ccccc2)CC1 (stereo not drawn)
μ-Opiate receptor [1 μM], % inhibition: 85%

CC(=O)OC(C)C(=O)NC1CCC(Cc2ccccc2C)(N(C)C)CC1 (stereo not drawn)
μ-Opiate receptor [1 μM], % inhibition: 63%

CC(Oc1ccccc1)C(=O)NC1CCC(Cc2ccc(Cl)cc2)(N(C)C)CC1 (stereo not drawn)
μ-Opiate receptor [1 μM], % inhibition: 56%

CC(Oc1ccccc1)C(=O)NC1CCC(Cc2ccc(F)cc2)(N(C)C)CC1 (stereo not drawn)
μ-Opiate receptor [1 μM], % inhibition: 77%

CN(C)C1(Cc2ccccc2F)CCC(NC(=O)C(C)(C)Oc2ccc(CCNC(=O)c3ccc(Cl)cc3)cc2)CC1 (stereo not drawn)
μ-Opiate receptor [1 μM], % inhibition: 48%

CN(C)C1(Cc2ccc(Cl)cc2)CCC(NC(=O)CCCOc2ccccc2)CC1 (stereo not drawn)
μ-Opiate receptor [1 μM], % inhibition: 47%

CCC(Oc1ccccc1)C(=O)NC1CCC(Cc2ccccc2Cl)(N(C)C)CC1 (stereo not drawn)
μ-Opiate receptor [1 μM], % inhibition: 76%

CN(C)C1(Cc2cccc(Cl)c2)CCC(NC(=O)COc2ccc(Cl)cc2)CC1 (stereo not drawn)
μ-Opiate receptor [1 μM], % inhibition: 51%

CN(C)C1(Cc2ccc(Cl)cc2)CCC(NC(=O)COCc2ccccc2)CC1 (stereo not drawn)
μ-Opiate receptor [1 μM], % inhibition: 52%

CN(C)C1(Cc2cccc(F)c2)CCC(NC(=O)COc2cccc(Cl)c2)CC1 (stereo not drawn)
μ-Opiate receptor [1 μM], % inhibition: 63%

CC(=O)OC(C)(C)C(=O)NC1CCC(Cc2cccc(F)c2)(N(C)C)CC1 (stereo not drawn)
μ-Opiate receptor [1 μM], % inhibition: 41%

CCOCC(=O)NC1CCC(Cc2ccccc2F)(N(C)C)CC1 (stereo not drawn)
μ-Opiate receptor [1 μM], % inhibition: 54%

CN(C)C1(Cc2ccc(F)cc2)CCC(NC(=O)C(C)(C)Oc2ccc(C(N)=O)cc2)CC1 (stereo not drawn)
μ-Opiate receptor [1 μM], % inhibition: 69%

CSCC(=O)NC1CCC(Cc2ccccc2F)(N(C)C)CC1 (stereo not drawn)
μ-Opiate receptor [1 μM], % inhibition: 56%

COC(=O)CCCC(=O)NC1CCC(Cc2cccc(Cl)c2)(N(C)C)CC1 (stereo not drawn)
μ-Opiate receptor [1 μM], % inhibition: 44%

CC(=O)OC(C(=O)NC1CCC(Cc2cccc(F)c2)(N(C)C)CC1)c1ccccc1 (stereo not drawn)
μ-Opiate receptor [1 μM], % inhibition: 61%

CN(C)C1(Cc2cccc(Cl)c2)CCC(NC(=O)COc2ccccc2)CC1 (stereo not drawn)
μ-Opiate receptor [1 μM], % inhibition: 69%

CN(C)C1(Cc2cccc(Cl)c2)CCC(NC(=O)c2ccccc2Nc2ccccc2)CC1 (stereo not drawn)
μ-Opiate receptor [1 μM], % inhibition: 64%

CC(Oc1ccccc1)C(=O)NC1CCC(Cc2cccc(F)c2)(N(C)C)CC1 (stereo not drawn)
μ-Opiate receptor [1 μM], % inhibition: 57%

CC(=O)OC(C(=O)NC1CCC(Cc2ccc(F)cc2)(N(C)C)CC1)c1ccccc1 (stereo not drawn)
μ-Opiate receptor [1 μM], % inhibition: 45%

COc1ccc(Oc2ccc([N+](=O)[O-])cc2C(=O)NC2CCC(Cc3cccc(C)c3)(N(C)C)CC2)cc1 (stereo not drawn)
μ-Opiate receptor [1 μM], % inhibition: 86%

O=C(CCc1ccccc1OC(=O)c1ccccc1)NC1CCC(c2ccccc2)(N2CCCCC2)CC1 (stereo not drawn)
μ-Opiate receptor [1 μM], % inhibition: 44%

CN(C)C1(Cc2ccccc2Cl)CCC(NC(=O)COCc2ccccc2)CC1 (stereo not drawn)
μ-Opiate receptor [1 μM], % inhibition: 79%

CN(C)C1(Cc2ccccc2F)CCC(NC(=O)COc2cccc(Cl)c2)CC1 (stereo not drawn)
μ-Opiate receptor [1 μM], % inhibition: 84%

CCC(Oc1ccccc1)C(=O)NC1CCC(Cc2ccccc2F)(N(C)C)CC1 (stereo not drawn)
μ-Opiate receptor [1 μM], % inhibition: 81%

O=C(CCc1ccccc1OC(=O)c1ccccc1)NC1CCC(Cc2ccccc2)(N2CCCCC2)CC1 (stereo not drawn)
μ-Opiate receptor [1 μM], % inhibition: 46%

CN(C)C1(CCc2ccccc2)CCC(NC(=O)CCc2ccccc2OC(=O)c2ccccc2)CC1 (stereo not drawn)
μ-Opiate receptor [1 μM], % inhibition: 67%

CC(Oc1ccccc1)C(=O)NC1CCC(Cc2ccccc2F)(N(C)C)CC1 (stereo not drawn)
μ-Opiate receptor [1 μM], % inhibition: 73%

Cc1ccc(CC2(N(C)C)CCC(NC(=O)CCCOc3ccc(Cl)cc3C)CC2)cc1 (stereo not drawn)
μ-Opiate receptor [1 μM], % inhibition: 55%

COC(=O)CCCC(=O)NC1CCC(Cc2ccccc2)(N(C)C)CC1 (stereo not drawn)
μ-Opiate receptor [1 μM], % inhibition: 49%

CC(=O)OC(C(=O)NC1CCC(Cc2ccccc2Cl)(N(C)C)CC1)c1ccccc1 (stereo not drawn)
μ-Opiate receptor [1 μM], % inhibition: 80%

CCC(Oc1ccccc1)C(=O)NC1CCC(c2ccccc2)(N2CCCCC2)CC1 (stereo not drawn)
μ-Opiate receptor [1 μM], % inhibition: 57%

CC(=O)OC(C)C(=O)NC1CCC(Cc2ccccc2)(N(C)C)CC1 (stereo not drawn)
μ-Opiate receptor [1 μM], % inhibition: 55%

CN(C)C1(c2ccccc2)CCC(NC(=O)C(C)(C)Oc2ccc(CCNC(=O)c3ccc(Cl)cc3)cc2)CC1 (stereo not drawn)
μ-Opiate receptor [1 μM], % inhibition: 104%

CC(=O)OC(C(=O)NC1CCC(Cc2cccc(Cl)c2)(N(C)C)CC1)c1ccccc1 (stereo not drawn)
μ-Opiate receptor [1 μM], % inhibition: 56%

CN(C)C1(Cc2ccccc2Cl)CCC(NC(=O)C(C)(C)Oc2ccccc2Cl)CC1 (stereo not drawn)
μ-Opiate receptor [1 μM], % inhibition: 89%

Cc1cc(Cl)ccc1OCCCC(=O)NC1CCC(Cc2ccccc2)(N(C)C)CC1 (stereo not drawn)
μ-Opiate receptor [1 μM], % inhibition: 52%

CC(Oc1ccccc1)C(=O)NC1CCC(CCc2ccccc2)(N(C)C)CC1 (stereo not drawn)
μ-Opiate receptor [1 μM], % inhibition: 54%

CC(Oc1ccccc1)C(=O)NC1CCC(Cc2ccccc2)(N2CCCC2)CC1 (stereo not drawn)
μ-Opiate receptor [1 μM], % inhibition: 44%

Cc1ccccc1CC1(N(C)C)CCC(NC(=O)COCc2ccccc2)CC1 (stereo not drawn)
μ-Opiate receptor [1 μM], % inhibition: 82%

CC(=O)OC(C(=O)NC1CCC(Cc2ccccc2F)(N(C)C)CC1)c1ccccc1 (stereo not drawn)
μ-Opiate receptor [1 μM], % inhibition: 63%

CN(C)C1(Cc2ccccc2Cl)CCC(NC(=O)c2ccccc2COC(=O)c2ccccc2)CC1 (stereo not drawn)
μ-Opiate receptor [1 μM], % inhibition: 90%

Cc1cccc(CC2(N(C)C)CCC(NC(=O)COc3ccc(Cl)cc3)CC2)c1 (stereo not drawn)
μ-Opiate receptor [1 μM], % inhibition: 64%

CN(C)C1(Cc2cccc(F)c2)CCC(NC(=O)COc2ccccc2)CC1 (stereo not drawn)
μ-Opiate receptor [1 μM], % inhibition: 84%

CN(C)C1(Cc2ccccc2F)CCC(NC(=O)CSc2ccc(C(F)(F)F)cn2)CC1 (stereo not drawn)
μ-Opiate receptor [1 μM], % inhibition: 61%

CN(C)C1(Cc2ccc(F)cc2)CCC(NC(=O)c2ccccc2Oc2ccccc2)CC1 (stereo not drawn)
μ-Opiate receptor [1 μM], % inhibition: 79%

CC(=O)OC(C(=O)NC1CCC(Cc2ccccc2C)(N(C)C)CC1)c1ccccc1 (stereo not drawn)
μ-Opiate receptor [1 μM], % inhibition: 76%

CC(=O)OCC(=O)NC1CCC(CCc2ccccc2)(N(C)C)CC1 (stereo not drawn)
μ-Opiate receptor [1 μM], % inhibition: 68%

CN(C)C1(CCc2ccccc2)CCC(NC(=O)COc2ccc(Cl)cc2)CC1 (stereo not drawn)
μ-Opiate receptor [1 μM], % inhibition: 49%
